Assay results published in patent US20110250179A1, “METHODS FOR TREATMENT AND DIAGNOSIS OF CANCER” (published 2011).

Protein sequences, listed by entry. Tags and fused reporters are not part of them. Lines headed by an entry give the natural chain unless they say otherwise; changes in a name come on top.
UniProt P35790, whole entry, looked up: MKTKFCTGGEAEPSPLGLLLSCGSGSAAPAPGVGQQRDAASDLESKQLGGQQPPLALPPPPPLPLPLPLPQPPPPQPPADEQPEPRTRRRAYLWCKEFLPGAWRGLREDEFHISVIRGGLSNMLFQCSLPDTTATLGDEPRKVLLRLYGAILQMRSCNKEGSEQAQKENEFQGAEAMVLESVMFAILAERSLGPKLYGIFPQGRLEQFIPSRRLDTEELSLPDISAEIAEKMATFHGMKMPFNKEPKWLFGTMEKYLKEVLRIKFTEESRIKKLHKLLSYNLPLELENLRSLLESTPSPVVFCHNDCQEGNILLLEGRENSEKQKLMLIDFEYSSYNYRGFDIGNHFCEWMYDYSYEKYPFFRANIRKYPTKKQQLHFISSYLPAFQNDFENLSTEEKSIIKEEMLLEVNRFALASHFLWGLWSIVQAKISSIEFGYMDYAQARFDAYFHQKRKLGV
UniProt Q9Y259: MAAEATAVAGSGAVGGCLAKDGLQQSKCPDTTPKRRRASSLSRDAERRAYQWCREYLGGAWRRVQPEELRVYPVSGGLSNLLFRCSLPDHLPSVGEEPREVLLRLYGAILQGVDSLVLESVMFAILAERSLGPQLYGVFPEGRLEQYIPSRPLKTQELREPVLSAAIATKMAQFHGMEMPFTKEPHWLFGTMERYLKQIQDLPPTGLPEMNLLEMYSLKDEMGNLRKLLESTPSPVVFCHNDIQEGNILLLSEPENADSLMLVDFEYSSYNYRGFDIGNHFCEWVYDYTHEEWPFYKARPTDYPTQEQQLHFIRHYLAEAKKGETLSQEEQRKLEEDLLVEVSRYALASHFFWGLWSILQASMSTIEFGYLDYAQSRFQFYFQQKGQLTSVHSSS

Columns and labels:
ChoK = details: xenotransplants of breast and colon cancer cells; cited from earlier work
PEMT mRNA = PEMT mRNA levels by quantitative PCR after MN58b; details: 20 μM; Hek293T, Jurkat, H1299 and SW780, all cases
ChoKβ mRNA = ChoKβ mRNA levels by quantitative PCR after MN58b; details: 20 μM, 24 and 48 hours; Hek293T, Jurkat, H1299 and SW780, all cases
ChoKα = ChoKα (Homo sapiens, UniProt P35790); experiment: sensitivity of ChoK isoforms to the chemical inhibitor MN58b
ChoKβ = ChoKβ (Homo sapiens, UniProt Q9Y259); experiment: as above; details: 20 μM MN58b
[1] = test system: Hek293T, Jurkat, H1299 and SW780 cells; experiment: induction of apoptosis (immunodetection of PARP proteolysis / Caspase 3 degradation); details: 20 μM, 24 h and 48 h

CN(C)c1cc[n+](Cc2ccc(CCCCc3ccc(C[n+]4ccc(N(C)C)cc4)cc3)cc2)cc1
phosphomonoester levels affected after antitumor treatment (NMR) (ChoK): only the levels of PCho, but not of other phosphomonoesters, were affected | levels of PEMT mRNA in response to MN58b (PEMT mRNA): increase | levels of ChoKβ mRNA in response to MN58b (ChoKβ mRNA): increase | effect on ChoKα (ChoKα; 20 μM MN58b): inhibited | sensitivity of ChoKα isoform versus ChoKβ isoform to the antiproliferative effect of MN58b (ChoKα; ChoKα compared with ChoKβ): markedly more sensitive | effect on ChoKβ (ChoKβ): not significantly affected | apoptosis (PARP and Caspase 3 degradation) [1]: Induction of apoptosis
